Patent US11786543B2, “Compositions comprising decitabine and tetrahydrouridine and uses thereof” (The Board of Trustees of the University of Illinois, priority 2008, dated 2023)

Tested on: primary leukemia cells from patients
Conditions: decitabine 0.5 μM added 2×/week

In the case of `Nc1ncn([C@H]2C[C@H](O)[C@@H](CO)O2)c(=O)n1` [Decitabine, 5-aza-2′-deoxycytidine], the “DNA damage or immediate apoptosis” value is reported as “did not cause DNA damage or immediate apoptosis”.
